In PubChem BioAssay AID743255 (National Center for Advancing Translational Sciences (NCATS), 2014):
The entries are a selection whose mix differs from that of the whole data set. Inconclusive results are not listed. A call without a number means that no potency is given here. The source made the active and inactive calls. Calls come from the whole dose curve; as a rule, active = well fitted inhibition curve with a large enough effect; inconclusive = small, poorly fitted or top-dose-only effect; inactive = no such curve, though single readings can be large or run the other way.

By UniProt entry, the sequences of proteins in these tests, tags left out.
UniProt O94782, whole entry, looked up: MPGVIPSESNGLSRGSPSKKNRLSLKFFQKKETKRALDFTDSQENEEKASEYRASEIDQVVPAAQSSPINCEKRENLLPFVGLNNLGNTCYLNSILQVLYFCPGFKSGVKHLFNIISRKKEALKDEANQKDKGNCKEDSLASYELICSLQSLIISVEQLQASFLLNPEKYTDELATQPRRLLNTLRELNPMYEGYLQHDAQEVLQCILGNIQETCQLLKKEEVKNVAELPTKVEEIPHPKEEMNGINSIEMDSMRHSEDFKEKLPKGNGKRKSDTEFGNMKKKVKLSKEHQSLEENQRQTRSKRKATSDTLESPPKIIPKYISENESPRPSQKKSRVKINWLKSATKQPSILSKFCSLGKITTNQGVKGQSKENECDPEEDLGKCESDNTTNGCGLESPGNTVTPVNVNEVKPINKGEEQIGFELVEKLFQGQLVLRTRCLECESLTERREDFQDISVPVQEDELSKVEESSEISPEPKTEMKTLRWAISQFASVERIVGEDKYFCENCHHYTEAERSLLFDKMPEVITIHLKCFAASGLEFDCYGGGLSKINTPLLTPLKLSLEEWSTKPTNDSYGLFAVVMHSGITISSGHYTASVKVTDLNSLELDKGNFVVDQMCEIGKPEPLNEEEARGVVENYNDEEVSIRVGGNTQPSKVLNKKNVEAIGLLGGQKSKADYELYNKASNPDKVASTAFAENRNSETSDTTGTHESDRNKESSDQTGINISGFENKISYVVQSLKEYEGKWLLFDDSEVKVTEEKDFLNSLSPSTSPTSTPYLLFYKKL

These molecules were tested against Ubiquitin carboxyl-terminal hydrolase 1 (Homo sapiens) (UniProt O94782) (assay: Inhibitors of USP1/UAF1: Primary Screen). Conditions: recombinant USP1/UAF1, Ub-Rhodamine cleavage fluorescence; series mostly up to 57.1 µM.
Description: Deubiquitinating enzymes (DUBs) are a class of enzymes that can cleave isopeptide bond formed between the C-terminal carboxylate of ubiquitin and a lysine side-chain amino group on the target protein. Among them, ubiquitin specific proteases (USPs) constitute the largest DUB family. Human USPs are emerging as promising targets for pharmacological intervention because of their connection to a number of human diseases, including prostate, colon and breast cancer (1, 2), pediatric acute lymphoblastic leukemia (3), and familial cylindromatosis (4). The advantage of inhibiting USPs lies in the potential specificity of therapeutic intervention that can lead to better efficacy and reduce nonspecific side effects. In a collaboration between the University of Delaware and the NIH Chemical Genomics Center, a high-throughput screen assay was developed to screen for USP1/UAF1 inhibitors. This miniaturized assay has a fluorescent read-out and is used to screen the NIH Molecular Libraries Small Molecule Repository (MLSMR) in order to identify a small molecule that inhibits USP1. NIH Chemical Genomics Center [NCGC] NIH Molecular Libraries Probe Centers Network [MLPCN] MLPCN Grant: DA030552 Assay Submitter (PI): Zhihao Zhuang, University of Delaware 1. Priolo, C., et al. (2006) The isopeptidase USP2a protects human prostate cancer from apoptosis. Cancer Res 66, 8625-8632 2. Popov, N., et al. (2007) The ubiquitin-specific protease USP28 is required for MYC stability. Nat Cell Biol 9, 765-774 3. De Pitta, C., et al. (2005) A leukemia-enriched cDNA microarray platform identifies new transcripts with relevance to the biology of pediatric acute lymphoblastic leukemia. Haematologica 90, 890-898 4. Kovalenko, A., et al. (2003) The tumour suppressor CYLD negatively regulates NF-kappaB signalling by deubiquitination. Nature 424, 801-805
3 microliters of reagents (buffer in columns 3 and 4 as negative control and 1nM USP1/UAF1 complex in columns 1, 2, and 5-48) are dispensed into Greiner black solid bottom 1536-well assay plates. Compounds are then transferred via Kalypsys pin tool equipped with 1536-pin array (10nl slotted pins, V&P Scientific, San Diego, CA). Following an incubation step of 15 min at room temperature, 1ul of Ub-Rho substrate (150nM final concentration) is added to initiate the reaction. The plates are immediately centrifuged at 1000 rpm for 15 seconds, and subsequently transferred to a ViewLux high-throughput CCD imager (PerkinElmer) wherein kinetic measurements of fluorescence are acquired using 480 nm excitation/540 nm emission filter set (6 reads every 60 seconds, see Table 1). All reagents are diluted in an assay buffer consisting of 50mM HEPES (pH 7.8), 0.5mM EDTA, 0.1 mg/ml BSA, 1mM TCEP, and 0.01% Tween-20.
Note: nearly all actives have a fitted effect of over 60% in size.
Potency is the fitted concentration of half-maximal effect.

Structure (SMILES) | Potency
CP(=O)(OCCOc1ccccc1)OCCOc1ccccc1 | inactive
CCCCCCCCCCCCCCCC1C[N+](C)(C)CCOP(C)(=O)O1 (centres undefined) | inactive
CP(=O)(Nc1ccc(Cl)cc1Cl)Oc1ccccc1 (centres undefined) | inactive
COc1ccc(OP(C)(=O)Nc2ccccc2Br)cc1 (centres undefined) | inactive
COc1ccccc1OP(C)(=O)Nc1ccc(C)c(C)c1 (centres undefined) | inactive
CCc1ccc(OP(C)(=O)O)cc1 | inactive
CP(=O)(Nc1ccccn1)Oc1ccccc1 (centres undefined) | inactive
COc1ccccc1OP(C)(=O)Nc1ccc(C)cc1C (centres undefined) | inactive
Cc1c(NP(C)(=O)Oc2ccc(C(C)C)cc2)c(=O)n(-c2ccccc2)n1C (centres undefined) | inactive
CN(C)CCOC(=O)C(O)(c1ccccc1)C1CCCC1 (centres undefined) | inactive
COc1ccc(OP(C)(=O)Nc2ccccn2)cc1 (centres undefined) | inactive
COc1ccccc1OP(C)(=O)Nc1ccc(Br)cc1 (centres undefined) | inactive
CN(C)C(=O)c1c([N+](=O)[O-])cc([N+](=O)[O-])cc1[N+](=O)[O-] | inactive
CP(=O)(Nc1ccc(Cl)cc1)Oc1ccc(F)cc1 (centres undefined) | inactive
CC(C)(C)c1ccc(OP(C)(=O)O)cc1 | inactive
COc1ccccc1OP(C)(=O)Nc1ccccc1Br (centres undefined) | inactive
CP(=O)(Oc1ccccc1)N1CCOC1=O (centres undefined) | inactive
CCc1ccc(OP(C)(=O)Nc2cccnc2)cc1 (centres undefined) | inactive
COc1ccccc1OP(C)(=O)Nc1c(C)n(C)n(-c2ccccc2)c1=O (centres undefined) | inactive
O=C(OCCCN1CCCC1)C(O)(c1ccccc1)C1CCCCC1 (centres undefined) | inactive
CCN(CC)CC(O)COC(=O)C(O)(c1ccccc1)C1CCCCC1 (centres undefined) | inactive
COc1ccc(OP(C)(=O)Nc2ccc(Br)cc2)cc1 (centres undefined) | inactive
CP(=O)(OC12CC3CC(CC(C3)C1)C2)OC12CC3CC(CC(C3)C1)C2 | inactive
Nc1ccc2c(ccc3cccnc32)n1.O=[N+]([O-])c1cc([N+](=O)[O-])c(O)c([N+](=O)[O-])c1 | inactive
Cc1c(C(c2ccc3c(c2)OCO3)c2c(C)n(C)n(-c3ccccc3)c2=O)c(=O)n(-c2ccccc2)n1C.O=[N+]([O-])c1cc([N+](=O)[O-])c(O)c([N+](=O)[O-])c1 | inactive

Structure (SMILES) | Potency
Cc1cc(-c2cccc3ccccc23)c(C)cn1.O=[N+]([O-])c1cc([N+](=O)[O-])c(O)c([N+](=O)[O-])c1 | inactive
O=[N+]([O-])c1ccc(OP2(=O)COCCO2)cc1 (centres undefined) | inactive
COc1ccc(NP(C)(=O)Oc2ccccc2OC)cc1 (centres undefined) | inactive
CN(C)CCOC(=O)C(O)(c1ccccc1)C1CCCCC1 (centres undefined) | inactive
COc1ccc(OP(C)(=O)Nc2cccc(Br)c2)cc1 (centres undefined) | inactive
Cc1ccccc1NP(C)(=O)Nc1ccccc1C | inactive
CP(=O)(Nc1ccc2c(c1)OCCO2)Oc1ccccc1 (centres undefined) | inactive
CCOP(C)(=S)SCC(=O)NC(C)(CC)C(=O)O (centres undefined) | inactive
O=C(OCCN1CCN(CCOCc2ccccc2)CC1)C(O)(c1ccccc1)c1ccccc1 | inactive
CC(C)c1ccc(OP(C)(=O)Nc2ccc(SC(F)(F)F)cc2)cc1 (centres undefined) | inactive
CP(=O)(Nc1ccccc1F)Oc1ccccc1 (centres undefined) | inactive
CCCCCOc1ccc(NP(C)(=O)Oc2ccc(Cl)cc2Cl)cc1 (centres undefined) | inactive
CP(=O)(Nc1ccccc1)Oc1ccc(F)cc1 (centres undefined) | inactive
CCN(CC)CCCOC(=O)C(O)(c1ccccc1)C1CCCCC1 (centres undefined) | inactive
CCOC(=O)c1ccc(NP(C)(=O)Oc2ccc(F)cc2)cc1 (centres undefined) | inactive
CC1=NCCc2c1[nH]c1ccccc21.O=[N+]([O-])c1cc([N+](=O)[O-])c(O)c([N+](=O)[O-])c1 | inactive
CP(=O)(Nc1cccc(Br)c1)Oc1ccccc1 (centres undefined) | inactive
Cc1cc(C)cc(OP(C)(=O)Nc2ccccn2)c1 (centres undefined) | inactive
Cc1ccc(C)c(NP(C)(=O)Oc2ccccc2)c1 (centres undefined) | inactive
Cc1cc(C)cc(OP(C)(=O)Nc2ccc(C)cc2C)c1 (centres undefined) | inactive
CCOC(=O)c1ccc(NP(C)(=O)Oc2cc(C)cc(C)c2)cc1 (centres undefined) | inactive
COc1ccccc1OP(C)(=O)Nc1cccc(Br)c1 (centres undefined) | inactive
Cc1nc2ccc3ccccc3c2s1.O=[N+]([O-])c1cc([N+](=O)[O-])c(O)c([N+](=O)[O-])c1 | inactive
O=[N+]([O-])c1cc([N+](=O)[O-])c(-c2cnn(-c3ccccc3)c2)c([N+](=O)[O-])c1 | inactive
O=[N+]([O-])c1cc([N+](=O)[O-])c(-n2nnc3ccccc32)c([N+](=O)[O-])c1 | inactive

Structure (SMILES) | Potency
CN1CCCCC1COC(=O)C1(O)c2ccccc2CCc2ccccc21 (centres undefined) | inactive
COc1ccccc1OP(C)(=O)Nc1c(C)cccc1C (centres undefined) | inactive
O=[N+]([O-])c1cc([N+](=O)[O-])c(Nc2nnnn2CCO)c([N+](=O)[O-])c1 | inactive
CC1=C2N=C(C=C3N=C(C(C)=C4[N-][C@@](C)([C@@H]5N=C1[C@](C)(CCC(=O)NC[C@@H](C)OP(=O)([O-])O[C@H]1[C@@H](O)[C@@H](n6cnc7cc(C)c(C)cc76)O[C@@H]1CO)[C@H]5CC(N)=O)[C@@](C)(CC(N)=O)[C@@H]4CCC(N)=O)[C@@](C)(CC(N)=O)[C@@H]3CCC(N)=O)C(C)(C)[C@@H]2CCC(N)=O.[C-]#N.[Co+3] | active: 8.91 µM
COc1ccccc1OP(C)(=O)Nc1ccccc1 (centres undefined) | inactive
CP(=O)(Nc1ccccc1Br)Oc1ccccc1 (centres undefined) | inactive
CP(=S)(Nn1cnnc1)Oc1ccccc1 (centres undefined) | inactive
CP(=O)(Nc1ccccn1)Oc1ccc(Cl)cc1 (centres undefined) | inactive
CCOP(C)(=S)SCC(=O)NC(C)C(=O)O (centres undefined) | inactive
O=[N+]([O-])c1cc([N+](=O)[O-])c(O)c([N+](=O)[O-])c1.c1ccc(Oc2ccncc2)cc1 | inactive
CCOC(=O)c1ccc(NP(C)(=O)Oc2ccc(OC)cc2)cc1 (centres undefined) | inactive
CCc1ccc(OP(C)(=O)N2CCN(c3ccc([N+](=O)[O-])cc3)CC2)cc1 (centres undefined) | inactive
CP(=O)(NC(=O)Nc1ccccc1)Oc1ccccc1 (centres undefined) | inactive
CP(=O)(Oc1ccccc1)OC(c1ccccc1)C(F)(F)F (centres undefined) | inactive
CCN(CC)CCCOC(=O)C(O)(c1ccccc1)c1ccccc1 | inactive
COc1ccccc1OP(C)(=O)Nc1cc(Cl)ccc1C (centres undefined) | inactive
COc1ccc(OP(C)(=O)Nc2cccc(F)c2)cc1 (centres undefined) | inactive
Cc1cc(C)cc(OP(C)(N)=O)c1 (centres undefined) | inactive
CCOC(=O)c1ccc(NP(C)(=O)Oc2ccccc2)cc1 (centres undefined) | inactive
COc1ccccc1OP(C)(=O)Nc1ccc(C)cc1 (centres undefined) | inactive
Cc1ccc(NP(C)(=O)Oc2ccccc2)c(C)c1 (centres undefined) | inactive
Cc1cccc(C)c1OP(C)(N)=O (centres undefined) | inactive
O=[N+]([O-])c1ccc2c(c1)C=Nc1ccccc1O2 | inactive
O=[N+]([O-])c1cc([N+](=O)[O-])c(Nc2cccnc2)c([N+](=O)[O-])c1 | inactive
